“Also recorded” adds a separate entry of the source.
Experiments:
[1] = test system: TGase activity (tTGase and Factor XIIIa) in meniscal cells; experiment: TGase activity in cultured knee meniscal cells (BP incorporation into N,N-dimethylcasein); assay type: cell-based, human; conditions: 72 hrs
Procedure: Meniscal cells were maintained in DMEM high glucose and supplemented with 10% FCS, 1% L-glutamine, 100 units/ml Penicillin and 50 μg/ml Streptomycin (Omega Scientific, Tarzana, Calif.) and cultured at 37° C. with 5% CO2. In monolayer cell culture studies involving stimulation by TGFE[…] or IL-1, the cells were placed in DMEM high glucose containing 1% FCS, 1% L-glutamine, 100 units/ml Penicillin and 50 μg/ml Streptomycin. In all other studies, the cells were cultured in complete medium (as described above). Only primary or first passage meniscal cells were studied. Type II collagen and aggrecan expression were confirmed in each meniscal cell preparation using RT-PCR, as previously described, and employing G3PDH as a control (28).
TGase activity was measured by modifications to a previously described method (35). Specifically, we coated 96 well ImmunoModule plates (Nunc, Rochester, N.Y.) with 200 μl of 20 mg/ml N,N-dimethylcasein for 1 hr at 23° C. […] Readings at OD410 were taken over 15 minutes. […] TGase activity was designated as the amount of BP incorporated into casein (per μg cellular DNA, determined chromogenically following precipitation in perchlorate (28), or, where indicated, per μg protein, determined as previously described (28)). […]

[2] = test system: NO release by meniscal cells; experiment: NO release by cultured meniscal cells (Greiss reaction); assay type: cell-based, human; conditions: 72 hrs, IL-1 or TNFα 10 ng/ml, NMMA 10 μM or A20 transfection
Procedure: NO release by 3×10^5 meniscal cells, which were plated and stimulated with TNFα (10 ng/ml) or IL-1 (10 ng/ml), with or without 10 μM NMMA (FIG. 8A), for 72 hrs was studied. Conditioned media were collected and 50 μl aliquots analyzed for NO release using the Greiss Reaction, with results expressed as μmoles released per μg DNA. For the studies in FIG. 8B, the meniscal cells were transfected with A20 or empty plasmid (where indicated), using the procedure described in the Methods, which included use of Lipofectamine Plus and a prior 3 minute incubation with 0.00015% digitonin to optimize the transfection. After 72 hrs of incubation with TNFα or IL-1, the conditioned media were collected from the cultured, transfected cells and analyzed in triplicate for NO release, as above. Data pooled from 4 normal donors studied in triplicate for FIGS. 8A and 8B. *p<0.05.
PPi was determined by differential adsorption on activated charcoal of UDP-D-[6-^3H] glucose (Amersham, Chicago, Ill.) from the reaction product 6-phospho [6-^3H] gluconate (28). Units of NTPPPH and AP were designated as micromoles of substrate hydrolyzed per hour (per μg DNA in each sample) (28). NO release by cultured meniscal cells was measured using the Greiss reaction (33). Concentrations or specific activities of PPi, NTPPPH, and AP were equalized for cellular DNA concentrations in each well.

## A20: zinc finger protein A20, expressed by transfection of full length human A20 cDNA in pcDNA4/HisMax
[1]; A20-transfected meniscal cells, Sin-1 10 μM, Noc-12 25 μM
  Effect on TGase activity induced by Noc-12 or Sin-1: did not inhibit TGase activity
[1]; meniscal cells, IL-1 or TNFα 10 ng/ml, NMMA 10 μM or A20 transfection
  Effect on IL-1 and TNFα-induced TGase activity: attenuated LL-1 and TNFα-induced TGase activity; also recorded: suppresses the ability of IL-1 and TNFα to induce TGase activity
[2]
  Effect on IL-1 and TNFα-induced NO release: attenuated IL-1 and TNFα-induced NO release; also recorded: suppresses IL-1 and TNFα-induced NO release
